Data: paper PMC3439374, “Co-Crystalization and In Vitro Biological Characterization of 5-Aryl-4-(5-Substituted-2-4-Dihydroxyphenyl)-1,2,3-Thiadiazole Hsp90 Inhibitors” (PLoS ONE, 2012)

Chains of the proteins cited; added tags and fusions are not shown. Residues count along the entry.
UniProt P08238, 2-724: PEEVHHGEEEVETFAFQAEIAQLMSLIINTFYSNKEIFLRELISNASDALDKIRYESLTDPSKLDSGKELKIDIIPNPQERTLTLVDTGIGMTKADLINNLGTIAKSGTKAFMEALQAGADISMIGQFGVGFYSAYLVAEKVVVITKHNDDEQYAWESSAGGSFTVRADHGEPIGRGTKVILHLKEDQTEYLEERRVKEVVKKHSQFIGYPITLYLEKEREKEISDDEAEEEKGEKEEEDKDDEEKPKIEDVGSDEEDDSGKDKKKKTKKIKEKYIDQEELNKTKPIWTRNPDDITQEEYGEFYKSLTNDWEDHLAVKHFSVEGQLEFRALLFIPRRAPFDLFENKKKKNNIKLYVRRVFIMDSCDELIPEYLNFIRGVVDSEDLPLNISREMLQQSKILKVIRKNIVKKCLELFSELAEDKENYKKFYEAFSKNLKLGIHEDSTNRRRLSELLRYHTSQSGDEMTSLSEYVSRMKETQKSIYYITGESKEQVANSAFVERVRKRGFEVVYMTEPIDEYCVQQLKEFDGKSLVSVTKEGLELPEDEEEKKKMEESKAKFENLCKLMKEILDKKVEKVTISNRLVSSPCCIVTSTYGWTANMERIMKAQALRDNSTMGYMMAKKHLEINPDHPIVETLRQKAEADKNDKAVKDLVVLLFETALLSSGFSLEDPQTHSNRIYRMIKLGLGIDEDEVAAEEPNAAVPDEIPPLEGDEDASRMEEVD

Molecular target: T1, Hsp90β (Homo sapiens, UniProt P08238)
T1 construct: gene HSP90AB1
Test: biochemical

| IC50 [nM] | SMILES |
| --- | --- |
| 26.6 ± 4.4 | COc1ccc(-c2snnc2-c2cc(Cl)c(O)cc2O)cc1 [ICPD 26] |
| 51.9 ± 6.4 | COc1ccc(-c2snnc2-c2cc(Cl)c(O)cc2O)cc1OC [ICPD 34] |
| 14.6 ± 1.6 | CCOc1ccc(-c2snnc2-c2cc(Cl)c(O)cc2O)cc1 [ICPD 47] |
